Species on record: Homo sapiens
Assay: Ratio of [(apical to basal)/(basal to apical)] (Caco-2 cell monolayer)
Assay type: ADME

SMILES | Ratio
O=C(O)c1cn(C2CC2)c2cc(N3CCNCC3)c(F)cc2c1=O [CIPROFLOXACIN] | 0.44
CN1C(=O)CN=C(c2ccccc2)c2cc(Cl)ccc21 [DIAZEPAM] | 1.7
